These results are taken from patent US20260069596A1, “USE OF PLK1 INHIBITOR AS MONOTHERAPY AND IN COMBINATION WITH CETUXIMAB IN TREATING RAS WILD-TYPE COLORECTAL CANCER” (Cardiff Oncology, Inc., priority 2024, published 2026).

For test [1], the system named is RAS^WT colorectal cancer patient derived xenograft (PDX) models. The experiment in a line: Example 2: antitumor activity in RAS^WT colorectal cancer PDX models. It is filed as in vivo, mice. The method, then: Tumor volumes (TV) were measured twice a week, and % tumor volume change (TVC) from baseline was calculated as follows: (TVi/TV0−1)×100. Tumor stasis defined as TVC between 0 and 20%, and tumor regression as TVC less than 0% at last measurement. Results are presented as mean±SEM.
Provided in this example are methods for use of PLK1 inhibitor as monotherapy or combination with EGFR inhibitor for treatment of cancer.

For test [2], the system named is RAS^WT CRC patient-derived xenograft (PDX) models. The experiment in a line: Example 1: antitumor activity in RAS^WT CRC PDX models. It is filed as in vivo, nude mice. The method, then: Twenty RAS^WT CRC PDXs were selected and engrafted in nude mice. […] PDX models were chosen based on their sensitivity to cetuximab, resulting in a selection of 7 cetuximab-sensitive (CetuxS) and 13 cetuximab-resistant (CetuxR) PDXs, including 7 with intrinsic resistance and 6 with acquired-resistance. Tumor volume change from baseline (TVC) was calculated as 100%×(Vt−Vo)/Vo and tumor growth inhibition (TGI) as 100%×(TVCcontrol−TVCtreated)/TVCcontrol. Tumor regression was defined as TVCD18<0 and tumor stasis 0≤TVCD18<100.

On to “cetuximab: monoclonal antibody targeting the epidermal growth factor receptor (EGFR) [reference compound]”, for which the “models resistant to treatment” value in test [1] (6 PDXs with acquired resistance to cetuximab) is recorded as “Four”. Further, in test [1] (7 PDXs sensitive to cetuximab, IP 20 mg/kg twice per week, 18-19 days), the “response of models to treatment” value was “all models responded”. The “PDXs with tumor regression” value in test [2] (7 cetuximab-sensitive (CetuxS) PDXs, 20 mg/kg BIW, 18 days) is “all”. For the same substance, the “median tumor growth inhibition (TGI)” value in test [2] (cetuximab-resistant models (13), IQR 16-61) came out at 29%.
